In PubChem BioAssay AID493208 (National Center for Advancing Translational Sciences (NCATS), 2011):
This is a selection; strong and weak results do not stand in their true shares. Records with an inconclusive call do not appear. Calls of active or inactive are those of the source. Calls follow the shape of the dose curve; as a rule, active = well fitted inhibition curve with a large enough effect; inconclusive = small, poorly fitted or top-dose-only effect; inactive = flat fitted curve, though single readings scatter.

experiment: Acumen qHTS Assay for Inhibitors of the mTORC1 Signaling Pathway in MEF (Tsc2-/-, p53-/-) Cells: Sytravon; conditions: phospho-rpS6 immunofluorescence/PI, 24 h; at 38.3 µM (top of the series);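 also: plate controls were DMSO for no effect and rapamycin for full effect; nearly all actives have a fitted effect of over 50% in size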
From the text: NIH Molecular Libraries Probe Production Centers Network [MLPCN] NIH Chemical Genomics Center [NCGC] MLPCN Grant: NS059428-01 Assay Submitter (PI): Blenis, John; Hoffman, Greg; Harvard University NCGC Assay Overview: The mammalian target of rapamycin (mTOR) is an intracellular serine/threonine kinase Aberrant regulation of mTOR signaling plays a causative role in a number of human diseases, including cancer, benign tumors such as lymphangioleiomyomatosis (LAM) and Tuberous Sclerosis Complex (TSC), and metabolic diseases such as diabetes and obesity. This project aims to identify inhibitors of ribosomal protein S6 (rpS6) phosphorylation. The phosphorylation of rpS6 is a key event downstream of mTOR activation. The assay uses a phospho-specific antibody of phospho-rpS6 to detect inhibitors of mTOR activation. Mutations in the Tsc1 and Tsc2 genes are the underlying genetic lesions responsible for TSC, causing constitutive activation of the mTORC1 pathway and leading to profound effects on cell metabolism. Aberrant metabolism in cancer has recently received significant attention as a target to develop therapeutic agents in the treatment of cancer.1 As Tsc2-/- cells have lost the ability to respond to energy and growth factor deprivation, these cells are unable to properly down regulate cellular biosynthetic processes in response to metabolic stress, and are thus extremely sensitive to glucose deprivation-induced death.2 A central goal of this project is to explore the unique cell survival and metabolic properties of cells with Tsc1 or Tsc2 by screening for compounds that selectively target the Tsc2-/- MEFs by screening both Tsc2-/- and WT MEF cell lines. We hope to better understand these aspects of TSC physiology in order to exploit them for therapeutic benefit.
NCGC Acumen Assay Protocol Summary: For quantitative high throughput analysis of mTORC1 signaling, we developed a cell-based assay for immuno-fluorescence based detection of rpS6 phosphorylation on the Acumen Explorer that will be used a platform for the primary small molecule screen. Mouse embryonic fibroblasts (MEFs) are cultured in 1536-well plates using DMEM + 10% FBS. Twenty-four hrs after plating, test compounds (solubilized in DMSO) are delivered and incubated with the cells for 24 hrs at 37 degree Celsius. Following the incubation, media with compound is aspirated and the cells are fixed in 4% paraformaldehyde (PFA) containing PBS + 0.2% TX-100. Next, PFA is aspirated, cells are washed two times with PBS plus 0.2% TX-100 and the cells are blocked for 1 hr at room temperature (blocking buffer: LiCOR Blocking Buffer plus 0.2% TX-100). […] Cells are washed two times with PBS plus 0.2% TX-100, and stained with 10 uM propidium iodide (PI) for 20-25 minutes for cell number measurement (1:500 dilution of Hoescht staining is also added for IN Cell imaging). The plates are scanned on the Acumen Explorer laser scanning instrument (TTP Labtech) using the 488nm laser for simultaneous excitation of the Alexa-488 and PI. […] The normalized phospho-S6 staining is calculated as the ratio of the integrated Alexa 488 intensity divided by the integrated PI intensity for the single concentration rapamycin control (7.5 nM) and DMSO columns. […] Inhibition of the pathway is defined based on the normalized phospho-S6 intensity in rapamycin treated cells. Active cells are defined as those with a normalized phospho-S6 staining above this threshold, and each treatment is reported as the % positive cells in the well, where thresholds are defined by selecting wells with the highest and lowest signal and differentiating between the % non-active and % active populations. In addition to the pathway specific phospho-S6 endpoint, the number of PI stained cells from the Acumen is recorded as a measure of cell viability. The primary screen was performed with a MEF cell line in a defined genetic background, Tsc2-/-, p53-/- cell line stably transfected with an empty vector control (Tsc2-/- MEF).

| SMILES | activity change, negative = inhibition |
| --- | --- |
| O=C(NCC1(N2CCOCC2)CCCCC1)c1ccccc1[N+](=O)[O-] | inactive: 1.49% |
| O=C(NCC1(N2CCOCC2)CCCCC1)c1ccc([N+](=O)[O-])cc1 | inactive: -12% |
| O=C(NCC1(N2CCOCC2)CCCCC1)c1ccccc1 | inactive: -5.75% |
| Cc1ccccc1C(=O)NCC1(N(C)C)CCCCC1 | inactive: -0.911% |
| CC(C)(C)c1ccc(C(=O)NCC2(N3CCOCC3)CCCCC2)cc1 | inactive: -8.52% |
| COc1cc(C(=O)NCC2(N3CCOCC3)CCCCC2)cc(OC)c1OC | inactive: -2.01% |
| COc1ccccc1C(=O)NCC1(N2CCOCC2)CCCCC1 | inactive: -0.153% |
| O=C(NCC1(N2CCOCC2)CCCCC1)c1ccc(Cl)cc1 | inactive: -1.28% |
| CCOc1ccc(C(=O)NCC2(N3CCOCC3)CCCCC2)cc1 | inactive: 0% |
| CCCOc1cccc(C(=O)NCC2(N3CCOCC3)CCCCC2)c1 | inactive: -7.01% |
| O=C(NCC1(N2CCOCC2)CCCCC1)c1ccccc1Br | inactive: -0.948% |
| CCCCOc1ccccc1C(=O)NCC1(N2CCOCC2)CCCCC1 | inactive: -21.6% |
